Measurements from patent publication US20090258071A1, “COMPOSITIONS AND METHODS FOR PH TARGETED DRUG DELIVERY” (Labopharm, Inc., priority 2006, published 2009).

How the values were obtained:
[1] = 10 mg/kg oral, mice; FIG. 5
Caco-2 monolayer = Caco-2 monolayer transport apical to basolateral, second study; conditions: 1, 5, 10 and 25 μM, 120 minutes at 37° C., FIG. 10

## CCc1c2c(nc3ccc(O)cc13)-c1cc3c(c(=O)n1C2)COC(=O)[C@]3(O)CC [SN-38, 7-ethyl-10-hydroxy-camptothecin]
[1]
  delivery of SN-38 to plasma: did not appear to be delivered to the plasma
Caco-2 monolayer
  flux / permeability of SN-38 across the monolayer as a function of concentration: approximately the same and did not increase with an increase in concentration
